Measured values reported in ChEMBL document CHEMBL5614453, “Study of Chalcogen Aspirin Derivatives with Carbonic Anhydrase Inhibitory Properties for Treating Inflammatory Pain” (ACS Med Chem Lett, 2024).
pKi: −log10 of the molar value.

Target: Carbonic anhydrase 2 (Homo sapiens, UniProt P00918)
Assay: Inhibition of human CA2 preincubated for 15 mins by phenol red dye based stopped flow CO2 hydration assay

CC(=O)Oc1ccccc1C(=O)O [ASPIRIN]
pKi: < 4.00
